This is a selection; strong and weak results do not stand in their true shares. Active and inactive are the calls of the source.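 How the source made its calls: active means side scatter shift above 30%; inactive means the rest.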
Assay: activators of LNCaP prostate cell differentiation, primary screen, flow cytometry side scatter (AID 795);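 further: androgen-responsive LNCaP prostate cancer cells in charcoal-stripped serum medium; percent of cells past a gate set so DMSO wells show 10% shift; higher shift means more granular cells and more differentiation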
Details: 4 d, at 10 µM, active compounds read high

SMILES	side scatter shift
N#CC1(Nc2ccccc2)CCN(CCc2ccccc2)CC1	inactive: 5%
Fc1ccccc1NC1CCN(Cc2ccccc2)CC1	inactive: 6%
